Data taken from patent US20030139427A1, “Bicyclic pyrimidinyl derivatives and methods of use thereof” (OSI Pharmaceuticals Inc., priority 2002, published 2003).

By UniProt entry, the sequences of proteins in these tests, tags left out.
UniProt P0DMS8, whole entry: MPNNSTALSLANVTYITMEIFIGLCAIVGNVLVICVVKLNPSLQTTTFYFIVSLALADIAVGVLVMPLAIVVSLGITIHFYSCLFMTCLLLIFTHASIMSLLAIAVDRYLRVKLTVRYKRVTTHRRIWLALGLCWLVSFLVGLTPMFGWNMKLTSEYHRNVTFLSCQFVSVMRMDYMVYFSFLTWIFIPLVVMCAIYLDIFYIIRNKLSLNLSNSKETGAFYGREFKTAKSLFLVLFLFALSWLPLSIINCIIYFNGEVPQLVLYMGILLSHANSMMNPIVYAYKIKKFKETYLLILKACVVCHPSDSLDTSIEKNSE
UniProt P30542, whole entry: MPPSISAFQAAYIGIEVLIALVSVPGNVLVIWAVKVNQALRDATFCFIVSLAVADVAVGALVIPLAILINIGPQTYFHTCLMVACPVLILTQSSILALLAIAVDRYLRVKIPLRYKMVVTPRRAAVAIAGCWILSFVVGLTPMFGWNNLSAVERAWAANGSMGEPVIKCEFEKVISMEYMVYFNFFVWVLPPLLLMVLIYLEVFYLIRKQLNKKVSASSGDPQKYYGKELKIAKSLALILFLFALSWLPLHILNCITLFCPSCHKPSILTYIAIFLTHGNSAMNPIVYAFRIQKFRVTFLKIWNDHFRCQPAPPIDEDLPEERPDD

What was measured:
hA3R = hA3R (Homo sapiens, UniProt P0DMS8); assay: Displacement binding of [3H]CPX, yeast membranes expressing human A3 receptor; settings: read-out: IC50 [nM] hA3R, 0.4 nM [3H]CPX
[1] = molecular target: human A1 receptor subtype (Homo sapiens, UniProt P30542); assay: biochemical

SMILES	IC50 (hA3R)	Ki [1]
C[C@H](Cc1ccccc1)Nc1ncnc2c1ncn2[C@@H]1O[C@H](CO)[C@@H](O)[C@H]1O [(R)-PIA]	23.6 nM	–
CC(=O)NCCNc1nc(-c2ccccc2)nc2[nH]c(C)c(C)c12 [Compound 1300]	–	0.0098 to 0.0251 µM
